Protein sequences, listed by entry. Tags and fused reporters are not part of them. Residues count along the entry.
UniProt P02769, 25-607: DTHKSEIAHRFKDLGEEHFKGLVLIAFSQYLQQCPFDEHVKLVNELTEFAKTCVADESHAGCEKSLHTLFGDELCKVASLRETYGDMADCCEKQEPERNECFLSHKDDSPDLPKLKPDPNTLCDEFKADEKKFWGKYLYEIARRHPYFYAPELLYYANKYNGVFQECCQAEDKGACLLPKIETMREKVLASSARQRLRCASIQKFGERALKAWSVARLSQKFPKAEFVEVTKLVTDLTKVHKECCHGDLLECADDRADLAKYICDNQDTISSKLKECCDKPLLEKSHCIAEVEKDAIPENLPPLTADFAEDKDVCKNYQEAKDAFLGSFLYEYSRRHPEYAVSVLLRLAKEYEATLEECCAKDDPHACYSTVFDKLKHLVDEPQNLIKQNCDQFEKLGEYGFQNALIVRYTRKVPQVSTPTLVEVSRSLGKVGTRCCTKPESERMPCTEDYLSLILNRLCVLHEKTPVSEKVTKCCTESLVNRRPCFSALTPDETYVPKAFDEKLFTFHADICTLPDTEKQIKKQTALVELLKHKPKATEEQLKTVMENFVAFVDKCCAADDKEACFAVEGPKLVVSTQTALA

According to US20160089321A1, “ANTIPERSPIRANT COMPOSITIONS” (Johnson & Johnson Consumer Inc., priority 2014, published 2016):

Biological target: T1, Bovine serum albumin (BSA) (Bos taurus, UniProt P02769)
T1 construct: add 4 g of albumin (available from Sigma-Aldrich) from bovine serum (BSA) to 2000 mL of buffer solution; purchased Sigma-Aldrich A7906; host or cells: bovine serum (natural source)
Test: In vitro active-protein interaction: BSA precipitation by the Bradford method
Format: biochemical
Conditions: for Precipitation (BSA): screening test, 10% active solution; for Precipitation (BSA) / % BSA Precipitation: buffer pH 4.9; for % BSA Precipitation: dose-response assay
Experimental: Method 2: In Vitro Study to Evaluate Active-Protein Interaction
Bovine serum albumin (BSA) was used as the reference protein to generate the calibration curve. […] The BSA granular, the BSA solution standard and Bradford reagent were all obtained from Sigma-Aldrich (Catalog Number: A7906, PO834, B6916). The buffer solution was made by adding 875 mL of 0.1 Molar sodium hydroxide (SpecSol) to 125 mL 0.1 Molar potassium dihydrogen phosphate (Merck) and its pH was adjusted to BSA isoelectric point (pH 4.9).
1. Prepare buffer by adding 875 mL of 0.1 Molar sodium hydroxide to 125 mL of 0.1 Molar potassium dihydrogen phosphate, adjusted to pH 4.9. This is the buffer solution used to make the active sample solution, the dose-response curve and the protein solution.
2. To prepare an active sample solution for initial screening, add 5 g of the active material to 50 mL of the buffer solution.
3. To prepare the protein solution, add 4 g of albumin (available from Sigma-Aldrich) from bovine serum (BSA) to 2000 mL of buffer solution.
4. To prepare the reaction solution, add 10 mL of the sample solution (step 2) to 50 mL of the protein solution.
5. To prepare the analytical solution, after filtration through a 0.45 μm membrane, 0.01 mL of reaction solution (step 4) to 3 mL of the Bradford reagent. Measure and record the absorbance at 595 nm. Determine the protein concentration by comparison to the standard curve.

## CC(O)C(=O)O.N (stereo not shown) [Ammonium lactate]
  Precipitation (BSA): 10%

## CC(O)C(=O)[O-].CC(O)C(=O)[O-].[Ca+2] (stereo not shown) [Calcium lactate]
  Precipitation (BSA): 8%

## O=S(=O)([O-])[O-].[Na+].[Na+] [Sodium sulfate]
  Precipitation (BSA): 9%

## CC(O)C(=O)[O-].CC(O)C(=O)[O-].[Zn+2] (stereo not shown) [Zinc Lactate (food), zinc lactate]
  Precipitation (BSA): 5%

## CC(O)C(=O)[O-].CC(O)C(=O)[O-].[Zn+2] (stereo not shown) [Zinc Lactate (pharma), zinc lactate]
1% solution
  % BSA Precipitation: 9%
5% solution
  % BSA Precipitation: 7%
10% solution
  % BSA Precipitation: 13%
15% solution
  % BSA Precipitation: 18%
  Precipitation (BSA): 31%
Summary of Tables 2 and 3
  Potential to be clogging agents (protein precipitation): demonstrated potential to be clogging agents
